Tests used:
[1] = target: Rice recombinant CYP701A6 (ent-kaurene oxidase) (Oryza sativa subsp. japonica, UniProt Q5Z5R4); experiment: CYP701A6 inhibition assay (formation of end product KA); assay type: biochemical; conditions: read-out: CYP701A IC50, Rice recombinant CYP701A6 expressed in insect cells, 10 μM ent-kaurene
Protocol: To evaluate the enzymatic selectivity between CYP707A and CYP701A, we examined the inhibitory activity against recombinant rice containing CYP701A6 expressed in insect cells using a baculovirus vector. This enzyme catalyses all three steps to KA via the corresponding alcohol and aldehyde, and consequently, the kinetic analysis is very complicated. Therefore, we evaluate the IC50 value for the formation of the end product, KA, instead of the KI value.
Reaction mixtures, containing 0.058 μM of […] microsomes, ATR2 (0.115 U), ent-kaurene (final concentration of 10 μM), inhibitors (0 for control, 1.5–1,500 μM in 8 μL dimethylformamide), and 20 mM NADPH in 500 mM potassium phosphate buffer (pH 7.4), were incubated at 30 °C for 10 min. Reactions were initiated by adding NADPH and stopped by the addition of 100 μL of 1 M HCl. Abietic acid, as the internal standard, was then added to the reaction product, which was extracted with EtOAc (400 μL × 3). The organic phase was dried over Na2SO4 and concentrated in vacuo. To derivatize the reaction products, MeOH (50 μL) and trimethylsilyldiazomethane (2 M in 5 μL hexane) were added, and the reaction mixture was incubated at room temperature for 10 min. The organic solvent was removed under N2, and samples were adjusted to 150 μL with hexane before a gas chromatography-mass spectrometry analysis (QP2010-plus; Shimadzu Corp., Kyoto, Japan). The conditions were as follows: the column was DB-5ms (0.25 mm id × 15 m, 0.25 μm film thickness; Agilent J & W, Folsom, CA, USA), the carrier gas was He, the flow rate was 1.65 mL min^−1, the injection port temperature was 280 °C, splitless injection, and the programmed column temperature was a step gradient of 80 °C for 1 min, 80–200 °C at 18 °C min^−1, 200–210 °C at 2 °C min^−1, 210–280 °C at 30 °C min^−1, and then 280 °C for 3 min. The KA content was calculated from the area ratio of molecular and fragment ions of methyl KA (m/z 316, 273, and 257) to those of methyl abietate (m/z 316 and 256). The inhibition ratio was defined as [(A − B)/A] × 100, where A = the amount of methyl KA/methyl abietate when the inhibitor was absent from the reaction mixture (control), and B = the amount of methyl KA/methyl abietate when the inhibitor was present. All of the tests were conducted at least three times.

Sequences of proteins named here, by UniProt entry; tags and fusion partners are left off.
UniProt Q5Z5R4, whole entry: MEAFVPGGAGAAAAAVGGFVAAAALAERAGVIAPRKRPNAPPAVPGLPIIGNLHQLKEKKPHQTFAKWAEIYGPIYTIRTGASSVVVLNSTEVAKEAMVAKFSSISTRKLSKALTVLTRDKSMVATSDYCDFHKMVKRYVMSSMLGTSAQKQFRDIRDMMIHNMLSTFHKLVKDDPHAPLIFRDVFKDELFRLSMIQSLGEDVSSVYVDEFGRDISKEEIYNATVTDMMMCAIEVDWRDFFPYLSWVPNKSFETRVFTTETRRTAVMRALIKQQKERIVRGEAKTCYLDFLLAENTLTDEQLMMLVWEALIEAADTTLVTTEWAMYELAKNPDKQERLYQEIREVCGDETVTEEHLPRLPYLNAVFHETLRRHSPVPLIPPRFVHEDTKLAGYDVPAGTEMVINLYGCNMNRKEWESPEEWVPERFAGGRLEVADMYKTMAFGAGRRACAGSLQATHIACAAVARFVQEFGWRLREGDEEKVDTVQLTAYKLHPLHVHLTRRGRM
UniProt Q9FH76, whole entry: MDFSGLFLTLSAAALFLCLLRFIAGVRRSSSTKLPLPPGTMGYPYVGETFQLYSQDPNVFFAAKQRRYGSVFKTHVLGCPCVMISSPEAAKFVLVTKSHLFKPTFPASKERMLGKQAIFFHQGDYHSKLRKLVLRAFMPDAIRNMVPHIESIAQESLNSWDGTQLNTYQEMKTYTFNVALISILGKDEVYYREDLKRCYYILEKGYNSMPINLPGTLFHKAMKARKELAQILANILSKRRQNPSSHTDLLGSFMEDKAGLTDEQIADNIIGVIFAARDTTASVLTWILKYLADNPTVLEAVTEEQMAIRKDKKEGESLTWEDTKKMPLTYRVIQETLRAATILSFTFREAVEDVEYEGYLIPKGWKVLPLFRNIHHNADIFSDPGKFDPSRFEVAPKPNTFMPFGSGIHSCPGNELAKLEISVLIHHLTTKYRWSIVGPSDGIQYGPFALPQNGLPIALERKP

[2] = target: Arabidopsis recombinant CYP707A3 (ABA 8′-hydroxylase) (Arabidopsis thaliana, UniProt Q9FH76); experiment: CYP707A3 inhibition assay (decrease of enzymatic product PA); assay type: biochemical; conditions: read-out: CYP707A IC50; Arabidopsis recombinant CYP707A3 expressed in E. coli; 5 μM ABA as substrate
Protocol: The inhibitory activities of Abz-T compounds against ABA 8′-hydroxylase were examined using recombinant Arabidopsis CYP707A3 co-expressed with Arabidopsis P-450 reductase (ATR1) in Escherichia coli[22]. The activity levels were evaluated based on the decrease in the amount of the enzymatic product, PA. […] The inhibition constant (KI) of (−)-compound 6 was determined to be 35 nM.
Reaction mixtures, containing 25 μg mL^−1 of CYP707A3 microsomes (co-expressed with ATR1 in E. coli), ABA (final concentrations of 1–64 μM for determining the KI value or 5 μM for determining the IC50 value), inhibitors (0 for control, 0.5–1,500 μM in 5 μL dimethylformamide) and 130 μM NADPH in 100 mM potassium phosphate buffer (pH 7.25), were incubated at 30 °C for 10 min. Reactions were initiated by adding NADPH, stopped by the addition of 25 μL of 1 M NaOH and then acidified with 50 μL of 1 M HCl. Reaction products were extracted by loading the mixture onto an Oasis HLB cartridge (1 mL, 30 mg; Waters Corp., Milford, MA, USA) and were washed with 1 mL of 10% MeOH in H2O (v/v) containing 1% acetic acid (AcOH, v/v). The enzyme products were then eluted with 1 mL of MeOH containing 1% AcOH, and the eluate was concentrated in vacuo. Each dried sample was then dissolved in 50 μL of MeOH, and a 20-μL volume was subjected to HPLC (Prominence; Shimadzu Corp., Kyoto, Japan). HPLC conditions were as follows: the octadecylsilyl column was composed of Hydrosphere C18 (150 × 6.0 mm, YMC Co., Ltd., Kyoto, Japan), and the solvent comprised 17% acetonitrile (MeCN) in H2O containing 0.05% AcOH (v/v). The flow rate was 1.0 mL min^−1, and detection was at 254 nm. Enzyme activity was evaluated by determining the amount of PA in control experiments prior to taking each set of measurements. The inhibition constants were determined using the Enzyme Kinetics module of the SigmaPlot 10 software (Systat Software, Inc., San Jose, CA, USA) after determining the inhibition mode by plotting the reaction velocity in the presence and absence of the inhibitor on a double-reciprocal plot. The inhibition ratio was defined as [(A − B)/A] × 100, where A = the amount of PA when the inhibitor was absent from the reaction mixture (control), and B = the amount of PA when the inhibitor was present. All of the tests were conducted at least three times.

rice seedling growth = experiment: Rice seedling elongation assay; assay type: in vivo, Oryza sativa L. cv. Nipponbare; conditions: at less than 100 μM
Protocol: The effects of (−)-Abz-T compounds were also tested on the early growth of rice seedlings to investigate whether the plant growth-retardant effect derived from UNI declined. […] This was the same trend observed for (−)-Abz-E2B[26]. […] Thus, the growth-retardant effects of (−)-Abz-T compounds may arise from an increase in the endogenous ABA level due to the CYP707A inhibition, although we cannot exclude the possibility that Abz-T compounds may inhibit off-target enzymes other than CYP707A and CYP701A.
Figure 4 Effects of (−)-Abz-T compounds on rice seedling growth compared with the effects of UNI and (−)-Abz-E2B. Seedlings grown on test media containing indicated concentrations of azole inhibitors for 7 d. Scale bars represent 10 mm. Compound 6 is also referred to as Abz-E3M.
For the rice seedling elongation assay, seven seeds (Oryza sativa L. cv. Nipponbare) were sterilised with reagent-grade EtOH for 5 min and washed with running tap water. They were then soaked in distilled water and incubated under continuous illumination at 25 °C for 3 d to germinate. The germinated seeds were then soaked in 2 mL of a test medium in a glass tube and grown under continuous illumination at 25 °C. When the seedlings were 7 d old, the length of the second leaf sheath was measured. All of the assays were conducted at least three times.

[3] = test system: Arabidopsis seed germination; experiment: Arabidopsis seed germination assay; assay type: in vivo, Arabidopsis (Columbia accession); conditions: in the presence of 0.1 μM ABA; Fig. 3
Protocol: In addition, (−)-compound 6 inhibited Arabidopsis seed germination under high temperature conditions (Fig. S3), which can be mimicked in the laboratory to cause thermoinhibition and induce the accumulation of endogenous ABA in plants.
Figure 3 Effects of (−)-Abz-T compounds on Arabidopsis seed germination compared with that of (−)-Abz-E2B. Seed germination rates in the presence of 0.1 μM ABA and the indicated concentrations of azole inhibitors at a time when the germination rate of plants treated only with ABA was 80% (n = 3; error bars represent s.d.). Compound 6 is also referred to as Abz-E3M.
For the Arabidopsis seed germination assay, 25 to 40 seeds (Columbia accession) were sterilised successively by soaking in 70% EtOH for 30 min and reagent-grade EtOH for 1 min. They were then soaked in distilled water and incubated in the darkness at 5 °C for 3 d. The stratified seeds were then soaked in 100 μL of a test medium liquid agar in 96-well plates and allowed to germinate under continuous illumination at 22 or 30 °C. In these assays, we used the classic definition of radical emergence for seed germination. All of the assays were conducted at least three times.

Structure (SMILES)	IC50 [1] [nM]	IC50 [2] [nM]	Effect on rice seedling growth (rice seedling growth)	Effect on ABA's inhibition of Arabidopsis seed germination [3]
CCCCOCCOCCOCC#Cc1ccc(/C=C(\C(O)C(C)(C)C)n2cncn2)cc1 (single isomer, unassigned) [(+)-3]	1500	1000	–	–
CCCCOCCOCCOCC#Cc1cccc(/C=C(\C(O)C(C)(C)C)n2cncn2)c1 (single isomer, unassigned) [(+)-4]	120	240	–	–
COCCOCCOCCOCC#Cc1ccc(/C=C(\C(O)C(C)(C)C)n2cncn2)cc1 (single isomer, unassigned) [(+)-5]	17000	7700	–	–
CCCCOCCOCCOCC#Cc1ccc(/C=C(\C(O)C(C)(C)C)n2cncn2)cc1 (single isomer, unassigned) [(−)-3]	770	200	–	–
CCCCOCCOCCOCC#Cc1cccc(/C=C(\C(O)C(C)(C)C)n2cncn2)c1 (single isomer, unassigned) [(−)-4]	62	12	did not inhibit seedling growth	enhanced the effects of ABA
COCCOCCOCCOCC#Cc1ccc(/C=C(\C(O)C(C)(C)C)n2cncn2)cc1 (single isomer, unassigned) [(−)-5]	8600	1500	–	–

From PMC5107945, “Abscinazole-E3M, a practical inhibitor of abscisic acid 8′-hydroxylase for improving drought tolerance” (Scientific Reports, 2016)
